These results are taken from article PMC8237267 (Journal of Medicinal Chemistry, 2021).

This assay deals with T1, HDAC8 (Homo sapiens, UniProt Q9BY41).
T1 construct: The full-length human HDACs were recombinantly expressed and purified from SF9 insect cells; host or cells: SF9 insect cells
T1 sequence (Q9BY41 1-377): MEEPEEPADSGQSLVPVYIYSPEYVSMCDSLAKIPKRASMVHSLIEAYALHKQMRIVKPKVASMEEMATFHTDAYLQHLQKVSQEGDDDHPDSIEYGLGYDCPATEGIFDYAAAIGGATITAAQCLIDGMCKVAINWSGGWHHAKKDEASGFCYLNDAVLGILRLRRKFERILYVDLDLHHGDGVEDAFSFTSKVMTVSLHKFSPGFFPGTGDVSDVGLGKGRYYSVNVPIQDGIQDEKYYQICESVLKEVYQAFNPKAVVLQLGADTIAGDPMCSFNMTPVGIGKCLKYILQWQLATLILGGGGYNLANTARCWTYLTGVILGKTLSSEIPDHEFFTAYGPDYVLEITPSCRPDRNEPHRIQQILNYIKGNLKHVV
The assay is described as follows: HDAC EMSA activity assay (Nanosyn). It is filed as biochemical. On the technique in general: In EMSA bound probe runs differently from free probe, usually more slowly.

Consider `COc1ccc(Cn2ccc3ccc(C(=O)NO)cc32)cc1` [PCI-34051, reference compound], for which the “HDAC8 potency” value is “nanomolar HDAC8 potency” and the “selectivity toward HDAC8” value came to 120 fold.
